PTAP TSG101 blk: blocks PTAP/TSG101 interaction to inhibit HIV-1 budding; Fluorescence polarization, FITC-PTAP peptide / Tsg101 binding; Potency, µM (series often up to 115 µM), inactives show top-dose activity change, negative = inhibition, usual class: inhibitors; 340,000 tested, under 10 active; active = well fitted inhibition curve with a large enough effect in the main read-out, with a control signal flat, not every such curve was filed as active; inconclusive = small, poorly fitted or top-dose-only effect, or effect the other way, or a change in a side signal; inactive = no such curve, though single readings can be large or run the other way; also: potency is read from the fitted curve at half-maximal effect; % of control where 0% means no effect
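FP read-out: FITC-PTAP peptide, 50 nM final, binding Tsg101 binding domain, 10 uM final; 20 min, r.t.; 10 mM HEPES pH 7.5, 0.15 M NaCl, 0.01% Tween 20, 3 mM EDTA, 0.1 mM TCEP.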
miR-21 FLuc: raises the signal of a miR-21 reporter; HeLa miR-21 FLuc reporter, luciferase, 48 h; Potency, µM (top dose mostly 38.3 µM), for inactives: at the highest dose reporter change, positive = more light; AID 2288; 340,000 tested, under 10 active; active = well fitted rising curve with a large enough effect; inconclusive = small, poorly fitted or top-dose-only effect; inactive = no such curve, though single readings can be large or run the other way;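 note: % of control where 0% means no effect; miR-21 action dims this reporter so a rising signal means less miR-21 action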
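HeLa cells endogenously expressing miR-21, stably carrying CMV-driven firefly luciferase with a downstream miR-21 binding site, 2000 cells/well. Titrations up to approximately 40 uM, 48 hours; luciferase luminescence read.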
Nrf2 block: blocks Nrf2 signaling. AID 504444. A549 ARE-Fluc reporter, luciferase luminescence, 18-24 h. 2.1% of 360,000 active. Potency, µM (top dose mostly 46 µM), for the others: at the highest dose activity change, negative = inhibition, most hits filed as inhibitors; also: potency is read from the fitted curve at half-maximal effect; % is scaled to controls: 0 for no effect and ±100 for the full control effect; nearly all actives have a fitted effect of over 60% in size
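Quantitative HTS in A549 cells stably bearing an antioxidant response element-firefly luciferase construct. Inhibition of Nrf2-driven transcription was scored by luminescence after 18-24 h of compound exposure at 37 °C.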
A549 tox: counter-screen for Nrf2 inhibitors: cytotoxicity in A549 cells; Potency, µM (series often up to 46 µM), inactives show at the highest dose activity change, negative = cytotoxicity, hits mostly inhibitors; A549 ARE-Fluc cells, CellTiter-Fluor viability, 18-24 h; 0.16% of 390,000 active; also: potency is read from the fitted curve at half-maximal effect; % is scaled to controls: 0 for no effect and ±100 for the full control effect
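A549 ARE_Fluc cells in 5% FBS OPTI-MEM were exposed to compounds in concentration-response for 18-24 h at 37 deg C. Viability was read by CellTiter-Fluor fluorescence (Ex 405/Em 525) after 30 min, before the luciferase read.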
Glioma ERSR ind: ER stress response induction in glioma; U87-MG GRP78 promoter luciferase reporter, 16 h; Potency, µM, for the others: top-dose activation, hits mostly activators; 0.02% of 420,000 active; also: potency is read from the fitted curve at half-maximal effect; series mostly up to about 76 µM; % of control where 0% means no effect; nearly all actives have a fitted effect of over 35% in size
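Stably transfected U87-MG glioma cells carrying a GRP78-based luciferase sensor; 16 h compound incubation. Luminescence end-point read 10 min after Bright-Glo addition at room temperature.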
Nrf2 ARE act: Nrf2 pathway activation; AREc32 ARE-luciferase reporter (MCF7-derived line), luminescence, 24 h; Potency, µM (highest dose often 46.1 µM), for the others: at the top dose activation, usual class: activators; 0.31% of 410,000 active; AID 624171; also: potency is read from the fitted curve at half-maximal effect; % of control where 0% means no effect; nearly all actives have a fitted effect of over 65% in size
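ARE activation measured as luciferase luminescence (Steady-Glo, 30 min RT) in AREc32_Fluc cells after 24 hr compound exposure at 37 deg C, 5% CO2; cells seeded overnight at 1000/well in OPTI-MEM, 5% FBS.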
Numbers without * were called inactive; u = inconclusive; x = no result given; [ ] = remark or other dose. Compounds with a hit are over-represented: about 2.1% of the library has one in this group of screens. Unless noted, calls follow the shape of the dose curve; as a rule, active = well fitted curve in the direction sought with a large enough effect; inconclusive = small, poorly fitted or top-dose-only effect, or another doubt; inactive = no such curve, though single readings can be large; an effect the other way counts as inactive or inconclusive.

Short forms: A = PTAP TSG101 blk; B = miR-21 FLuc; C = Nrf2 block; D = A549 tox; E = Glioma ERSR ind; F = Nrf2 ARE act
smiles: Cc1ccc(NC(=O)CN2CCc3cc4c(cc3C2C)OCCCO4)cc1C (stereo not given)
  A: -2%	B: 0%	C: 26µM*	D: -15%	E: -2%	F: 0%
smiles: CC(C)[C@H](NC(=O)N1CCn2c1nc1ccccc12)C(=O)NC1CCCCC1
  A: -11%	B: 4%	C: 21µM*	D: u	E: 1%	F: 0%
smiles: CC(C)(C)n1ncc2c(=O)n(Cc3cccc(C(F)(F)F)c3)cnc21
  A: x	B: x	C: x	D: x	E: -2%	F: x
smiles: CC1(c2ccccc2)CC(C)(C)N2C(=O)C3(C(C#N)=C(N)Oc4cc(O)ccc43)c3cccc1c32 (stereo not given)
  A: x	B: 20%	C: 21µM*	D: u	E: 0%	F: 0%
smiles: O=S1(=O)N=C(Oc2ccc(Cl)cc2)c2ccccc21
  A: x	B: x	C: -1%[65.3 µM]	D: -4%[65.3 µM]	E: x	F: x
smiles: CCOc1ccc(-c2nnc(SCC(=O)Nc3cc(C)on3)o2)cc1
  A: -1%	B: 6%	C: 15µM*	D: -4%	E: -9%	F: -2%
smiles: Cc1cc(NCc2ccccn2)n2nc(C)c(-c3ccc(Cl)cc3)c2n1
  A: 0%	B: u	C: 16µM*	D: -29%	E: -3%	F: 0%
smiles: COc1ccc(-c2csc(NC(=O)c3ccccc3F)c2C(=O)O)cc1
  A: -3%	B: 15%	C: 13µM*	D: -19%	E: 4%	F: -1%
smiles: COc1ccc(C(=O)N2CCC3(CC2)c2ccccc2[C@@H](NC(=O)c2ccccn2)[C@@H]3OC)c(O)c1
  A: x	B: x	C: x	D: x	E: -5%	F: x
smiles: CC(C)Cc1nc(N2CCN(C(=O)c3ccco3)CC2)c(C#N)c2c1CCCC2
  A: -4%	B: -4%	C: u	D: u	E: -3%	F: -1%
smiles: CC(C)C(=O)N1CCN(c2nc(-c3ccccc3)c3c(c2C#N)CCCC3)CC1
  A: -4%	B: 4%	C: 12µM*	D: u	E: -2%	F: 3%
smiles: O=C(N=Nc1c(O)[nH]c2ccccc12)c1cccc(S(=O)(=O)N2CCCCC2)c1
  A: -3%	B: -1%	C: -9%	D: 3%	E: 2%	F: 0%
smiles: CC(C)c1ccc2[nH]c(O)c(N=NC(=O)c3cccc(S(=O)(=O)N4CCCCC4)c3)c2c1
  A: -2%	B: -6%	C: 18µM*	D: u	E: 1%	F: 0%
smiles: Cc1cc2c(s1)c1cnn(Cc3cc(F)c(F)c(F)c3F)c(=O)c1n2C
  A: x	B: x	C: -11%	D: 0%	E: x	F: x
smiles: CN(c1ccc(F)cc1)S(=O)(=O)c1ccc(Cl)c(C(=O)Nc2ccncc2)c1
  A: 0%	B: x	C: 18µM*	D: -8%	E: -1%	F: 10%
smiles: O=C(Nc1ccccc1)c1cc(S(=O)(=O)NCc2ccncc2)ccc1Cl
  A: -1%	B: 15%	C: 18µM*	D: -4%	E: -6%	F: 0%
smiles: COc1ccc(S(=O)(=O)NCc2ccncc2)cc1NC(=O)c1ccc(Cl)cc1
  A: -7%	B: x	C: 4.6µM*	D: -3%	E: 0%	F: 2%
smiles: COc1ccc(S(=O)(=O)NCc2ccncc2)cc1NC(=O)c1ccccc1
  A: 1%	B: x	C: 6.5µM*	D: -7%	E: -5%	F: 3%
smiles: Cc1ccc(C(=O)Nc2cccc(-c3nc(CNC(=O)c4cccc(N(C)C)c4)c(C)o3)c2)s1
  A: x	B: x	C: x	D: x	E: 2%	F: x
smiles: CC(C)N1C[C@@H](Sc2ccccn2)C[C@H]1C(=O)Nc1ccc2c(c1)Nc1ccccc1CC2
  A: x	B: x	C: x	D: x	E: -1%	F: x
smiles: COc1cccc(C2C(C(=O)Nc3nc4ccccc4s3)=C(C)NC3=C2C(=O)CC(C)(C)C3)c1OC (stereo not given)
  A: -6%	B: -7%	C: 16µM*	D: -15%	E: -1%	F: -1%
smiles: COc1ccc(OC)c(C2C(C(=O)Nc3nc4ccccc4s3)=C(C)NC3=C2C(=O)CCC3)c1 (stereo not given)
  A: -4%	B: -2%	C: -28%	D: -13%	E: 13%	F: 13%
smiles: Cc1ccc2c(c1)C(N1CCCC1=O)CC(c1ccco1)N2 (stereo not given)
  A: 0%	B: -35%	C: u	D: -3%	E: -1%	F: 11µM*
smiles: CSc1cc2c(s1)c1cnn(Cc3ccccc3F)c(=O)c1n2C
  A: x	B: x	C: -16%	D: -3%	E: x	F: x
smiles: CC(C)(C)CNc1nc(C#N)nc(Nc2ccccc2)n1
  A: x	B: x	C: 18µM*	D: u	E: x	F: x

Among those listed so far, 3 contain an aryl thioether with sulfur outside any ring.
Short forms: A = PTAP TSG101 blk; B = miR-21 FLuc; C = Nrf2 block; D = A549 tox; E = Glioma ERSR ind; F = Nrf2 ARE act
smiles: CCOc1ccc(-c2nnc(SCC(=O)Nc3cc(C)on3)o2)cc1
  A: -1%	B: 6%	C: 15µM*	D: -4%	E: -9%	F: -2%
smiles: CC(C)N1C[C@@H](Sc2ccccn2)C[C@H]1C(=O)Nc1ccc2c(c1)Nc1ccccc1CC2
  A: x	B: x	C: x	D: x	E: -1%	F: x
smiles: CSc1cc2c(s1)c1cnn(Cc3ccccc3F)c(=O)c1n2C
  A: x	B: x	C: -16%	D: -3%	E: x	F: x

As a short view, 2 of the compounds above.
Short forms: A = PTAP TSG101 blk; B = miR-21 FLuc; C = Nrf2 block; D = A549 tox; E = Glioma ERSR ind; F = Nrf2 ARE act
smiles: Cc1ccc(NC(=O)CN2CCc3cc4c(cc3C2C)OCCCO4)cc1C (stereo not given)
  A: -2%	B: 0%	C: 26µM*	D: -15%	E: -2%	F: 0%
smiles: CC(C)[C@H](NC(=O)N1CCn2c1nc1ccccc12)C(=O)NC1CCCCC1
  A: -11%	B: 4%	C: 21µM*	D: u	E: 1%	F: 0%

Additional results follow.
molecule	PTAP TSG101 blk	miR-21 FLuc	Nrf2 block	A549 tox	Glioma ERSR ind	Nrf2 ARE act
O=C1c2ccccc2C(=O)N1CCCCN(C(=O)c1ccc([N+](=O)[O-])cc1)c1ccc(Cl)cc1	-2%	7%	u	-20%	-4%	0%
O=C1c2ccccc2C(=O)N1CCCCN(C(=O)c1cc([N+](=O)[O-])cc([N+](=O)[O-])c1)c1ccc(Cl)cc1	-4%	-3%	23µM*	-12%	0%	0%
COc1ccc(C2Nc3ccccc3C(=O)N2Cc2ccccc2)cc1COc1ccc(NC(=O)c2ccccc2)cc1 (stereo not given)	x	x	-9%	-2%	x	x
CCc1cc2c(=O)n(Cc3ccco3)c(SCC(=O)N3CCCc4ccccc43)nc2s1	-2%	-7%	26µM*	-28%	-1%	6%
CCc1cc2c(=O)n(Cc3ccco3)c(SCC(=O)NCC3CCCO3)nc2s1 (stereo not given)	-3%	7%	u	-14%	-2%	4%
N#C/C(=C\c1ccc[nH]1)C(=O)Nc1ccccc1Cl	-14%	-42%	9%	7%	-4%	u
N#C/C(=C\c1ccc[nH]1)C(=O)Nc1ccccc1F	-1%	-56%	u	-9%	15%	11µM*
Cc1ncc2c(c1CNC(=O)c1ccc3c(c1)OCO3)CCN(C(=O)/C=C/c1ccccc1Cl)C2	x	x	x	x	2%	x
N/C(=N\OC(=O)N1CCOCC1)c1ccc(Cl)cc1	1%	-7%	4%	-13%	7%	7%
N/C(=N\OC(=O)N1CCOCC1)c1ccc(Br)cc1	-1%	4%	u	13µM*	2%	-5%
CC(=O)N1CCc2cc(S(=O)(=O)N3c4ccccc4CC3C)ccc21 (stereo not given)	-5%	18%	15µM*	-12%	-2%	0%
CC(=O)N1CCc2cc(S(=O)(=O)N3CCOCC3)ccc21	-5%	-6%	12%	6%	-3%	-1%

Continuation:
molecule	PTAP TSG101 blk	miR-21 FLuc	Nrf2 block	A549 tox	Glioma ERSR ind	Nrf2 ARE act
COc1cccc(Cn2nnc(C(=O)Nc3cc(C)ccc3OC)c2N)c1	0%	4%	-14%	11%	-2%	0%
COc1cccc(Cn2nnc(C(=O)Nc3cc(C)ccc3C)c2N)c1	x	1%	16µM*	-4%	-1%	4%
CCC1CN2CCc3cc(OC)c(OC)cc3C2CC1CC1NCCc2cc(OC)c(OC)cc21 (stereo not given)	x	x	x	x	-5%	x
CCC1=C(CC2NCCc3ccccc32)CC2c3cc(OC)c(OC)cc3CCN2C1 (stereo not given)	-10%	x	3.7µM*	7.3µM*	-5%	-1%
Cc1ccc(C2C(/C=C3/SC(=S)NC3=O)=C(c3cccs3)Oc3ccccc32)cc1 (stereo not given)	-1%	u	13µM*	10µM*	0%	12%

Source: PubChem BioAssay (National Center for Advancing Translational Sciences (NCATS))
